The entries are a selection whose mix differs from that of the whole data set. The source made the active and inactive calls. Rule as the data show it: active = inhibition above about 30%; inactive = the rest.
Experiment: phenotypic screen on post-Golgi transport, primary screen (AID 739);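 also: yeast cells grown in 1536-well plates; yeast grown about 18 h at 30C before absorbance read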
Conditions: post-Golgi transport phenotypic cell assay; at 10 µM; active compounds read high

Compound | inhibition
CCC(CO)(C(=O)OC1CN2CCC1CC2)c1ccccc1 (centres undefined) | inactive: 12.1%
CCOc1ncccc1C(=O)NCC1(N2CCOCC2)CCCCC1 | inactive: -0.31%
N/C(=N\O)c1c(N)no[n+]1[O-] | inactive: -14.4%
c1ccc(CN2CCC(Nc3ccccc3)CC2)cc1 | inactive: -0.67%
O=C(NCC1(N2CCOCC2)CCCCC1)c1cc(=O)[nH]c2ccccc12 | inactive: -6.51%
N#CC1(Nc2ccccc2)CCN(CCc2ccccc2)CC1 | inactive: 16%
O=C(OC1CN2CCC1CC2)C1c2ccccc2Oc2ccccc21 (centres undefined) | inactive: 3.22%
O=C(NCC1(N2CCOCC2)CCCCC1)c1cc2ccccc2o1 | inactive: 10.9%
COc1ccc(NC2CCN(CCc3ccccc3)CC2)c(OC)c1 | inactive: 11.2%
